This is a selection; strong and weak results do not stand in their true shares. Some structures show a salt or complex split into parts, the way the source records it. Active and inactive are the calls of the source. No stated cut-off is given here; in the data, active means growth inhibition above about 70%; inactive means the rest.
Key:
[1] = NCI Yeast Anticancer Drug Screen. Data for the rad50 strain (AID 155);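 further: 0% = growth of vehicle-only cultures of the same strain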; conditions: S. cerevisiae rad50 strain growth inhibition; at 50.0 µM; stronger effect = higher value
[2] = NCI Yeast Anticancer Drug Screen. Data for the mec2-1 strain (AID 157); conditions: S. cerevisiae mec2-1 strain, at 50.0 µM, stronger effect = higher value
[3] = NCI Yeast Anticancer Drug Screen. Data for the sgs1 mgt1 strain (AID 161);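 further: 0% = growth of cultures given vehicle only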; conditions: S. cerevisiae sgs1 mgt1 strain, at 50.0 µM, stronger effect = higher value
[4] = NCI Yeast Anticancer Drug Screen. Data for the cln2 rad14 strain (AID 165);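 further: 0% = growth equal to vehicle treated cultures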; conditions: S. cerevisiae cln2 rad14 strain, at 50.0 µM, stronger effect = higher value
[5] = NCI Yeast Anticancer Drug Screen. Data for the bub3 strain (AID 167); conditions: S. cerevisiae bub3 mutant strain, at 50.0 µM, stronger effect = higher value
[6] = NCI Yeast Anticancer Drug Screen. Data for the mlh1 rad18 strain (AID 175); conditions: S. cerevisiae mlh1 rad18 strain growth inhibition; at 50.0 µM; stronger effect = higher value

Measured: growth inhibition

Cc1ccc(N(C)C)cc1.O=[N+]([O-])c1cc([N+](=O)[O-])c(O)c([N+](=O)[O-])c1
inactive: [1] -1.85% | [2] -11.8% | [3] 5.55% | [4] 6.75% | [5] 1.15% | [6] 0.4%

Cc1cc2cc3ccccc3cc2c2ccccc12.O=C1c2cc([N+](=O)[O-])ccc2-c2c1cc([N+](=O)[O-])cc2[N+](=O)[O-]
inactive: [1] -6.05% | [2] 6.55% | [3] 8.05% | [4] -13% | [5] -4.75% | [6] 19.4%

CCCSC(=N)N.O=[N+]([O-])c1cc([N+](=O)[O-])c(O)c([N+](=O)[O-])c1
inactive: [1] -6.7% | [2] -11.4% | [3] -8% | [4] -41.8% | [5] 23.6% | [6] -0.2%

Cc1cc2ccccc2c2c1ccc1ccccc12.O=C1c2cc([N+](=O)[O-])ccc2-c2c1cc([N+](=O)[O-])cc2[N+](=O)[O-]
inactive: [1] 35.4% | [2] 15.4% | [3] 30.1% | [4] -8.55% | [5] 23.5% | [6] 65.1%

O.[C-]#N.[C-]#N.[C-]#N.[C-]#N.[C-]#N.[Fe+5]
inactive: [1] 2.85% | [2] -2.35% | [3] 15.1% | [4] -1.25% | [5] -1.6% | [6] -7.9%

CCC([N+](=O)[O-])([N+](=O)[O-])[N+](=O)[O-]
inactive: [1] 46.1% | [2] 16.8% | [3] 19.1% | [4] 16.1% | [5] 4.55% | [6] 24.6%

CCC(O)(CN1CCCCC1)C1Cc2ccccc2O1.O=[N+]([O-])c1cc([N+](=O)[O-])c(O)c([N+](=O)[O-])c1 (stereo unspecified)
inactive: [1] 6.05% | [2] 24.4% | [3] 43.4% | [4] 5.5% | [5] 14.3% | [6] 45.5%

COc1ccc2nccc(C)c2c1.O=[N+]([O-])c1cc([N+](=O)[O-])c(O)c([N+](=O)[O-])c1
inactive: [1] 33.7% | [2] 12.4% | [3] 12.6% | [4] 4.05% | [5] -1.9% | [6] 16.6%

O=[N+]([O-])c1cc([N+](=O)[O-])c(O)c([N+](=O)[O-])c1.c1ccc(C2=c3ccc4c5c(ccc(c35)=N2)=C(c2ccccc2)N=4)cc1
inactive: [1] 65.3% | [2] 15.2% | [3] 63% | [4] 25.9% | [5] 7.55% | [6] 48.3%

CCOP(=O)(O)CC.[Cr]
inactive: [1] -3.35% | [2] -21.4% | [3] 0.05% | [4] -49.3% | [5] -19.1% | [6] -6.7%

CCCC[S+](N)(=O)CCC(N)P(=O)(O)O.O=[N+]([O-])c1cc([N+](=O)[O-])c([O-])c([N+](=O)[O-])c1
inactive: [1] -11.8% | [2] -7.1% | [3] 1.6% | [4] 7.1% | [5] -17.4% | [6] -1.9%

CCP1(=O)Nc2ccccc2N1
inactive: [1] 27.1% | [2] -8.95% | [3] -1.65% | [4] -61.9% | [5] -1.55% | [6] -1.1%

CCN(CC)CCOC(=O)C(O)(c1ccccc1)c1cccc(C)c1 (stereo unspecified)
inactive: [1] -0.9% | [2] 6.65% | [3] 7.25% | [4] -11.8% | [5] -0.4% | [6] 5.55%

COc1ccc2c3c1OC1[C@@]4(OC)CCC5(CC4C(C)=O)[C@@H](C2)N(C)CC[C@]315 (stereo partly specified)
inactive: [1] 10.8% | [2] -4.5% | [3] -7.7% | [4] -15.5% | [5] 3.75% | [6] 4.35%

O=[N+]([O-])c1cc(Cc2cc([N+](=O)[O-])c(O)c([N+](=O)[O-])c2)cc([N+](=O)[O-])c1O
inactive: [1] 43% | [2] 9.3% | [3] 18.6% | [4] 4.35% | [5] 1.8% | [6] 30%

CCCCC(c1ccccc1)(C(C)C)N(C)C.O=[N+]([O-])c1cc([N+](=O)[O-])c(O)c([N+](=O)[O-])c1 (stereo unspecified)
inactive: [1] 35.1% | [2] 13.7% | [3] 24.4% | [4] 22.6% | [5] 3.2% | [6] 27.9%

CCN=C(N)C(N)=NCC.O=[N+]([O-])c1cc([N+](=O)[O-])c(O)c([N+](=O)[O-])c1
inactive: [1] 30.2% | [2] 6.65% | [3] 27.1% | [4] -10.3% | [5] -0.25% | [6] -5.9%

O=C(CCCN1CCC(OC(=O)C(O)(c2ccccc2)c2ccccc2)CC1)c1ccc(F)cc1
inactive: [1] 38.3% | [2] 46.5% | [3] 44.8% | [4] 55% | [5] 44% | [6] 48.6%

CCCN(CCC)CCC.O=[N+]([O-])c1cc([N+](=O)[O-])c(O)c([N+](=O)[O-])c1
inactive: [1] 4.6% | [2] 2.25% | [3] 2.75% | [4] -25.2% | [5] -3.95% | [6] 13.8%

O=C(CCN1CCCC(O)C1COC(=O)C(O)(c1ccccc1)c1ccccc1)NCc1ccccc1 (stereo unspecified)
inactive: [1] -25.4% | [2] -39.5% | [3] -31.2% | [4] -5.55% | [5] -24.8% | [6] -19.2%

CC(C)CCNC(C)(C)CO.O=[N+]([O-])c1cc([N+](=O)[O-])c(O)c([N+](=O)[O-])c1
inactive: [1] 43.9% | [2] 16.1% | [3] 33.8% | [4] -17.9% | [5] -0.5% | [6] 30.1%

COc1ccc2c(c1)C13CCN(C)C(C2)C1CC(C)=C(C)C3.O=[N+]([O-])c1cc([N+](=O)[O-])c(O)c([N+](=O)[O-])c1 (stereo unspecified)
inactive: [1] 45% | [2] -0.15% | [3] 24.2% | [4] -13.8% | [5] 6.3% | [6] 23.9%

ClCCN[PH+]1OCCCN1CCCl.ClCCN[PH+]1OCCCN1CCCl.[Cl][Pt][Cl] (stereo unspecified)
inactive: [1] 2.4% | [2] 4.7% | [3] -2.6% | [4] -13.1% | [5] -4.6% | [6] 10.3%

N=C(OCCN)C(=N)OCCN.O=[N+]([O-])c1cc([N+](=O)[O-])c(O)c([N+](=O)[O-])c1
inactive: [1] 10.2% | [2] 5.45% | [3] 14.4% | [4] -5.75% | [5] -0.55% | [6] 37.8%

CC(O)CNC1CCCC1.O=[N+]([O-])c1cc([N+](=O)[O-])c(O)c([N+](=O)[O-])c1
inactive: [1] -7.15% | [2] 9.6% | [3] -0.8% | [4] -45.8% | [5] -5.95% | [6] -4.25%

CCN(CC)CCOC(=O)C(O)(c1ccccc1)c1ccc(C)c(C)c1 (stereo unspecified)
inactive: [1] -1.2% | [2] -8.3% | [3] -5.35% | [4] 3.95% | [5] 8.1% | [6] 0.45%

Cc1cc(=O)n(C)n1C.O=[N+]([O-])c1cc([N+](=O)[O-])c(O)c([N+](=O)[O-])c1
inactive: [1] 17.6% | [2] -8.75% | [3] 6.05% | [4] -30.1% | [5] -9.5% | [6] 13.7%

CCN(CC)CCOC(=O)C(O)(c1ccc(C)cc1)c1ccc(C)cc1
inactive: [1] 19.6% | [2] 7% | [3] 9.7% | [4] 3.4% | [5] 2.1% | [6] 15.9%

CCCC(C[S+](C)C)[S+](C)C.O=[N+]([O-])c1cc([N+](=O)[O-])c(S(=O)(=O)[O-])c([N+](=O)[O-])c1
inactive: [1] 37.2% | [2] 38.1% | [3] 63.9% | [4] 20.1% | [5] 26.9% | [6] 65%

CCCP(=O)(N(C)C)N(C)C
inactive: [1] -2% | [2] -10.1% | [3] -2.05% | [4] -11.1% | [5] -27.2% | [6] -8.85%

Cc1ccc([N+](=O)[O-])c2cccnc12.O=[N+]([O-])c1cc([N+](=O)[O-])c(O)c([N+](=O)[O-])c1
inactive: [1] 7.75% | [2] 6.85% | [3] 1.95% | [4] -26.1% | [5] -18.8% | [6] 15.8%
